Results published in ChEMBL document CHEMBL1129803, “Novel phenyl nitrogen mustard and half-mustard derivatives of distamycin A” (1997).

The compounds below were run on L1210 (assay: Compound was tested in vivo for cytotoxicity against L1210 murine leukemia cells in mice after intravenous administration and is expressed as optimal non-toxic dose).

Structure (SMILES)	OD [mg/kg]
Cc1cc(C(=O)Nc2cc(C(=O)Nc3cc(C(=O)Nc4cc(C(=O)NCCC(=N)N)n(C)c4)n(C)c3)n(C)c2)ccc1N(CCCl)CCCl	3.13
Cn1cc(NC(=O)c2cc(NC(=O)c3cc(NC(=O)c4ccc(N(CCBr)CCBr)cc4)cn3C)cn2C)cc1C(=O)NCCC(=N)N	0.39
CCN(CCCl)c1ccc(/C=C/C(=O)Nc2cc(C(=O)Nc3cc(C(=O)Nc4cc(C(=O)NCCC(=N)N)n(C)c4)n(C)c3)n(C)c2)cc1	3.13
Cc1cc(C(=O)Nc2cc(C(=O)Nc3cc(C(=O)Nc4cc(C(=O)NCCC(=N)N)n(C)c4)n(C)c3)n(C)c2)cc(C)c1N(CCCl)CCCl	6.25
CCN(CCCl)c1ccc(C(=O)Nc2cc(C(=O)Nc3cc(C(=O)Nc4cc(C(=O)NCCC(=N)N)n(C)c4)n(C)c3)n(C)c2)cc1	3.13
Cn1cc(NC(=O)c2cc(NC(=O)c3cc(NC(=O)/C=C/c4ccc(N(CCCl)CCCl)cc4)cn3C)cn2C)cc1C(=O)NCCC(=N)N	6.25
CCN(CCCl)c1ccc(C(=O)Nc2cc(C(=O)Nc3cc(C(=O)Nc4cc(C(=O)NCCC(=N)N)n(C)c4)n(C)c3)n(C)c2)cc1C	1.56
CCCN(CCCl)c1ccc(C(=O)Nc2cc(C(=O)Nc3cc(C(=O)Nc4cc(C(=O)NCCC(=N)N)n(C)c4)n(C)c3)n(C)c2)cc1	3.13
